Assay results: patent publication US9771337B2, “Neprilysin inhibitors” (THERAVANCE BIOPHARMA R&D IP, LLC, priority 2011, dated 2017)

Protein sequences, listed by entry. Tags and fused reporters are not part of them.
UniProt P08473, whole entry: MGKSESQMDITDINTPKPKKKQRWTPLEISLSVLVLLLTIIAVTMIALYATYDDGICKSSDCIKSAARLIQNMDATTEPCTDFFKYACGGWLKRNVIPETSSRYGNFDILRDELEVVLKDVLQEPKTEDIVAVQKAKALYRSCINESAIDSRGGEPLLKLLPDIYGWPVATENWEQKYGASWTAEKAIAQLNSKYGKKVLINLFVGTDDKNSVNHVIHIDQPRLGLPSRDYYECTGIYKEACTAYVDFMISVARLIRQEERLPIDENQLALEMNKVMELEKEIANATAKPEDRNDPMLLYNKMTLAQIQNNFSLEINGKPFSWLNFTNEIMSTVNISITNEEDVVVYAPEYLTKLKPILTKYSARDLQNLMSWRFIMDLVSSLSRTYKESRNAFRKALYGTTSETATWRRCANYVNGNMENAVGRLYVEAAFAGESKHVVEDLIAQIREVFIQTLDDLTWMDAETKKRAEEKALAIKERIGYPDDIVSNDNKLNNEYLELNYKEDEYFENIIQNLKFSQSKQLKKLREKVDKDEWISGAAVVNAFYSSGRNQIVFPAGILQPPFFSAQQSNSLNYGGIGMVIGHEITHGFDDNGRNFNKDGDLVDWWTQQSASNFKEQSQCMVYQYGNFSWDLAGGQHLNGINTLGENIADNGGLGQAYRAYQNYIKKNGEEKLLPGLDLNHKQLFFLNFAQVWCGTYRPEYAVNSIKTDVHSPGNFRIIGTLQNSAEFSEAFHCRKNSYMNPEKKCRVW

Target: human NEP (Homo sapiens, UniProt P08473)
Experiment: In vitro enzyme inhibition assay, inhibitor potency at human NEP
Details: pKi values at human NEP, recombinant human NEP, fluorogenic peptide substrate 10 μM, 37° C.
Description: The inhibitory activities of compounds at human and rat neprilysin (EC 3.4.24.11; NEP) and human angiotensin converting enzyme (ACE) were determined using in vitro assays as described below.
Recombinant human NEP and recombinant human ACE were obtained commercially (R&D Systems, Minneapolis, Minn., catalog numbers 1182-ZN and 929-ZN, respectively). The fluorogenic peptide substrate Mca-D-Arg-Arg-Leu-Dap-(Dnp)-OH (Medeiros et al. (1997) Braz. J. Med. Biol. Res. 30:1157-62; Anaspec, San Jose, Calif.) and Abz-Phe-Arg-Lys(Dnp)-Pro-OH (Araujo et al. (2000) Biochemistry 39:8519-8525; Bachem, Torrance, Calif.) were used in the NEP and ACE assays respectively.
The assays were performed in 384-well white opaque plates at 37° C. using the fluorogenic peptide substrates at a concentration of 10 μM in Assay Buffer (NEP: 50 mM HEPES, pH 7.5, 100 mM NaCl, 0.01% polyethylene glycol sorbitan monolaurate (Tween-20), 10 μM ZnSO4; ACE: 50 mM HEPES, pH 7.5, 100 mM NaCl, 0.01% Tween-20, 1 μM ZnSO4).
Test compounds were assayed over the range of concentrations from […] to 20 μM. Test compounds were added to the enzymes and incubated for 30 minute at 37° C. prior to initiating the reaction by the addition of substrate. […]
Plates were read on a fluorometer with excitation and emission wavelengths set to 320 nm and 405 nm, respectively. […]

| Compound | pKi | pKi (tested form: TFA) |
| --- | --- | --- |
| O=C(N[C@H](Cc1ccccc1)[C@@H](O)C(=O)O)c1ccc(-c2ccccc2C(=O)O)nn1 | 8.0-8.9 | – |
| O=C(N[C@H](Cc1ccccc1Cl)[C@@H](O)C(=O)O)c1cc(-c2ccccc2C(=O)O)ccn1 | – | ≧9.0 |
